From the NIST ThermoML archive (doi:10.1016/j.jct.2018.01.003)
Numbers after ± are expanded uncertainties.

Test: activity coefficient (dimensionless); of the first substance listed, at infinite dilution; xn = mol fraction of the nth substance listed
Details: 101.33 kPa, Liquid, Chromatography, x1 = 0

- activity coefficient (328.15 K): 1.7 ± 0.11
- activity coefficient (338.15 K): 1.75 ± 0.12
- activity coefficient (348.15 K): 1.79 ± 0.12
- activity coefficient (358.15 K): 1.83 ± 0.12
- activity coefficient (368.15 K): 1.86 ± 0.13
SMILES: CCCCOCCCC [dibutyl ether] + CCCCCCCCCCCCCC[P+](CCCCCC)(CCCCCC)CCCCCC.N#CC(=C=[N-])C#N
